This series is described as follows: Solubility observed during preparation. It is filed as physicochemical.

Take “(Bispidin-9,9-diol)platinum(II)(oxalate) [compound 7]”: under “DMF”, the “solubility in DMF” value was “even less so”. Besides, the solubility in water result (water) is “dissolves only poorly”.

For the origin of these results see EP2905286A1, “Novel diazabicyclohydrocarbon-Pt complexes and the use thereof as pharmaceuticals” (Studiengesellschaft Kohle mbH, priority 2014, dated 2015).
